This note sets out measurements from ChEMBL document CHEMBL5726717, “Heterocyclic modulators of lipid synthesis and combinations thereof” (2019).

The nature of the test: cells. It is filed as cell-based. Conditions: Huh-7.

As for `Cc1nc(C)c(-c2cc(C(=O)N3CCC(c4ccc(Cl)cc4)CC3)ccc2C)[nH]1`, the concentration for a half-maximal effect (EC50) (commonly the midpoint of the concentration-response curve) amounted to 115 nM.
